# Values of other authors, collected in patent EP0960886B1, “Peptide T and related peptides in the treatment of inflammation, including multiple sclerosis” (priority 1992, dated 1993).
# Assays:
# [1] = in vivo; cited from earlier work
# [2] = exit by diffusion only; cited from earlier work
structure (smiles),measurement,setting,value
"C[C@@H](N)C(=O)N[C@@H](CO)C(=O)N[C@H](C(=O)N[C@H](C(=O)N[C@H](C(=O)N[C@@H](CC(N)=O)C(=O)N[C@@H](Cc1ccc(O)cc1)C(=O)N[C@H](C(N)=O)[C@@H](C)O)[C@@H](C)O)[C@@H](C)O)[C@@H](C)O [Peptide T, D-Ala-Ser-Thr-Thr-Thr-Asn-Tyr-Thr-NH2]",half life,[1],< 1 h
same,transport from the blood to the brain,[2],"active, saturable transport system"
